According to paper PMC7144325, “Discovery of novel ATAD2 bromodomain inhibitors that trigger apoptosis and autophagy in breast cells by structure-based virtual screening” (Journal of Enzyme Inhibition and Medicinal Chemistry, 2020):

Biological target: T1, ATAD2 bromodomain (Homo sapiens, UniProt Q6PL18)
T1 sequence (Q6PL18 980-1092 limits assumed): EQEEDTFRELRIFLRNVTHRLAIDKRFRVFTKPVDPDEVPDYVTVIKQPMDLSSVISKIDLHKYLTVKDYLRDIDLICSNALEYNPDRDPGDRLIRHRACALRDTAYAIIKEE
Assay: TR-FRET assay, ATAD2 bromodomain
Type: binding
Conditions: read-out: ATAD2 enzyme inhibition rate
Protocol: The assay was performed by TR-FRET technology using recombinant bromodomain and BET Ligand[27]. The compounds were diluted in 100% DMSO. They were diluted 20 fold in 5% DMSO in Reaction Buffer and 2 µl of the dilution was added to a 20 µl reaction. The reaction mixture incubated for 180 min prior to reading the TR-FRET signal. TR-FRET was recorded as the ratio of the fluorescence of the acceptor and the donor dyes (acceptor/donor). Binding experiments were performed in duplicate at each concentration. The TR-FRET data were analysed using the computer software, Graphpad Prism.

CC1=C(C#N)c2nc(N)c(C#N)c(C)c2/C1=C\c1ccc(-c2cc(C(=O)O)ccc2Cl)o1 [AM879]
inhibition at 20 µM: 75%
